Laboratory results as given in US11591366B2, “Macrocyclic compounds and methods of preventing or treating pain” (SOCPRA SCIENCES SANTÉ ET HUMAINES S.E.C., priority 2017, dated 2023).
Like-named read-outs stand apart in the source and are kept apart here.

Amino acid sequences for entries named in this document (tags omitted).
UniProt P30989, whole entry: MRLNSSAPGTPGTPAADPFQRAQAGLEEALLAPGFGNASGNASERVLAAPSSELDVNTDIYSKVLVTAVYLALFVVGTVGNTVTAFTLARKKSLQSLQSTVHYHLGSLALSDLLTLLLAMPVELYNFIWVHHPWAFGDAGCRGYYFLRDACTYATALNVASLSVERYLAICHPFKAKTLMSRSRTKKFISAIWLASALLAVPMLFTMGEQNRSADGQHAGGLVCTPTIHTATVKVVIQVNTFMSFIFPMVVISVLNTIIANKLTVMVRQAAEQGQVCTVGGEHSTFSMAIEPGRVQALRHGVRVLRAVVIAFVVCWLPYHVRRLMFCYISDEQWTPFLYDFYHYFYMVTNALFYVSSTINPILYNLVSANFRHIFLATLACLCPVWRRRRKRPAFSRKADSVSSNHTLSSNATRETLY

Tests used:
[1] = Plasma stability assay; type: in vitro ADME; settings: rat plasma at 37° C.
Procedure: Rat plasma was obtained by centrifugation of rat blood (13000 rpm, 5 min, 4° C.). […] Proteolytic degradation was quenched by adding 70 μL of acetonitrile/ethanol (1:1), 0.5% nicotinamide solution and vortexing. […] Data were analyzed using GraphPad Prism 7's one phase decay equation.

[2] = target: T1, hNTS1 (β-arrestin 2 recruitment) (Homo sapiens, UniProt P30989); assay: BRET biosensor assay, β-arrestin 2 recruitment; type: cell-based
T1 construct: expressed in transfected cells; host or cells: CHO-K1, transient transfection with PEI

[3] = target: T2, hNTS1 (β-arrestin 1 recruitment) (Homo sapiens, UniProt P30989); assay: BRET biosensor assay, β-arrestin 1 recruitment; type: cell-based; settings: CHO-K1 cells transiently transfected with hNTS1 and biosensors, mean ± SEM, read-out: EC50 β-arr1
T2 construct: expressed in transfected cells; host or cells: CHO-K1, transient transfection with PEI

[4] = BRET, CHO-K1 cells transiently transfected with hNTS1 and biosensors, mean ± SEM, read-out: EC50 β-arr2

SMILES: CCC(C)[C@H](NC(=O)[C@@H]1Cc2ccc(O)c(c2)CC=CCNCCCC[C@H](N)C(=O)N[C@@H](CCCCN)C(=O)N2CCC[C@H]2C(=O)N1)C(=O)N[C@@H](CC(C)C)C(=O)O (stereo partly shown) [Compound 2, c[K(All)KPY(All)]IL]
- half-life at […] [1]: 19 min
- EC50 [2]: 21 ± 0.05 nM

SMILES: CCC(C)[C@H](NC(=O)[C@@H]1Cc2ccc(O)c(c2)CC=CCNCCCC[C@@H](N)C(=O)N[C@@H](CCCCN)C(=O)N2CCC[C@H]2C(=O)N1)C(=O)N[C@@H](CC(C)C)C(=O)O (stereo partly shown) [Compound 4, c[K(All)KPY(All)]IL]
- EC50 [2, 4]: 201 ± 0.05 nM

SMILES: CCC(C)[C@H](NC(=O)[C@@H]1Cc2ccc(O)c(c2)CC=CCN(S(=O)(=O)c2ccccc2[N+](=O)[O-])CCCC[C@H](N)C(=O)N[C@@H](CCCCN)C(=O)N2CCC[C@H]2C(=O)N1)C(=O)N[C@@H](CC(C)C)C(=O)O (stereo partly shown) [Compound 5, c[K(All)(S(O)2(o-nitrophenyl))KPY(All)]IL]
- EC50 [2, 4]: 92 ± 0.05 nM

SMILES: CCC(C)[C@H](NC(=O)[C@@H]1Cc2ccc(O)c(c2)CC=CCNCC[C@H](N)C(=O)N[C@@H](CCCCN)C(=O)N2CCC[C@H]2C(=O)N1)C(=O)N[C@@H](CC(C)C)C(=O)O (stereo partly shown) [Compound 8, c[Dab(All)KPY(All)]IL]
- EC50 [2, 4]: 19 ± 0.04 nM

SMILES: CCC(C)[C@H](NC(=O)[C@@H]1Cc2ccc(O)c(c2)CC=CCCNCCCC[C@H](N)C(=O)N[C@@H](CCCCN)C(=O)N2CCC[C@H]2C(=O)N1)C(=O)N[C@@H](CC(C)C)C(=O)O (stereo partly shown) [Compound 9, c[K(butenyl)KPY(All)]IL]
- EC50 [3]: 24 ± 0.05 nM

SMILES: CCC(C)[C@H](NC(=O)[C@@H]1Cc2ccc(O)c(c2)CC=CCCCNCCCC[C@H](N)C(=O)N[C@@H](CCCCN)C(=O)N2CCC[C@H]2C(=O)N1)C(=O)N[C@@H](CC(C)C)C(=O)O (stereo partly shown) [Compound 10, c[K(pentenyl)KPY(All)]IL]
- EC50 [2, 4]: 24 ± 0.05 nM
